What follows are compounds tested against human recombinant P2X7 receptor (Homo sapiens (Human), UniProt Q99572) (assay: YO-PRO assay: P2X7 receptor antagonistic activity). Settings: HEK cells expressing human P2X7.
Assay type: cell-based
Protocol: The P2X7 receptor antagonistic activity of the compounds of formula (I) is determined in accordance with the following experimental method.
Cell Line Generation and YO-PRO Assay
Cell line generation was performed in general according to established molecular cloning protocols. Specifically, RNA was extracted from human whole blood using the Qiagen RNeasy kit (Qiagen, CH) according to the manufacturer's instructions. Subsequently cDNA was made (Superscript II, Invitrogen AG, CH) and the human P2X7 gene (genbank ref. BC011913) was amplified with the following primers: […] and […]. The amplified sequence was subsequently ligated into a pcDNA3.1 (+) NotI, NheI digested plasmid. […] Following a 24 h exposure to DNA, cells were trypsinized and re-seeded at low density in the presence of 250 μg Geneticin. Geneticin resistant cells were then selected during two consecutive rounds of cloning by serial limiting dilution with visual inspection. Individual clones were screened for P2X7 expression by applying ATP and recording the resultant uptake of YO-PRO1. Specific cell clones were chosen based on RNA and protein expression. HEK cells stably expressing P2X7 were used to screen drugs using the YO-PRO1 assay. Cells were grown to confluency in adherent culture at 37° C. in a humidified 5% CO2 incubator (split 1/5 every 3-4 days with DMEM, 10% FCS, 1% Penicillin/Streptomycin, 250 μg/ml Geneticin). Adherent cells were detached by incubation with Trypsine (1 ml per 165 cm^2 dish) for 2 minutes, then washed off with 10 ml PBS (without Mg^2+ and Ca^2+), and resuspended in DMEM, 10% FCS, 1% Penicillin/Streptomycin, no Geneticin. […] During this time period, four time points were taken. Each time point comprised the average of several measurements made within a few seconds. […] The FLIPR tetra was equipped with Molecular Devices Screen Works system control software to define and run experimental protocols. […] For IC50 measurements the maximum intensity is plotted against the concentration of compound to determine IC50 values.

The chains behind the UniProt entries cited, without tags or fusion partners. Where a name states a change or a piece, a line headed by the entry shows the natural chain unless it says otherwise.
UniProt Q99572: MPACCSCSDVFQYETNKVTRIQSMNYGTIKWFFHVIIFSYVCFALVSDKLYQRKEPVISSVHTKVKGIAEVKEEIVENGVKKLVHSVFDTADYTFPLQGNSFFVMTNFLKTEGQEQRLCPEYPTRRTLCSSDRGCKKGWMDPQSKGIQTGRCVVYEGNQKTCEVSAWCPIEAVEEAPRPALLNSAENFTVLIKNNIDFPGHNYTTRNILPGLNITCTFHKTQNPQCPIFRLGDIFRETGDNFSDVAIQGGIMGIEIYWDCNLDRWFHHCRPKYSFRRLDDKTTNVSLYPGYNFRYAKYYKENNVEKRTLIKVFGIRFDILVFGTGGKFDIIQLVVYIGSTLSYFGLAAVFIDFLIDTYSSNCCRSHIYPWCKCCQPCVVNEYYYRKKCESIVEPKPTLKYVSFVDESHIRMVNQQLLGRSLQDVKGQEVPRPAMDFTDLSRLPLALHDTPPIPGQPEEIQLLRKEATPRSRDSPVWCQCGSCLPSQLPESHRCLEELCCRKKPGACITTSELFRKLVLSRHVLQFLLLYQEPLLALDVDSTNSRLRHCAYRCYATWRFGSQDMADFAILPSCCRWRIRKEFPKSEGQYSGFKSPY

Question: Which IC50 does the source give for `O=C(Cc1cccc(Cl)c1Cl)NC1COc2ncccc21` (racemic) [Example 66, rac-2-(2,3-Dichloro-phenyl)-N-(2,3-dihydro-furo[2,3-b]pyridin-3-yl)-acetamide] here?
Answer: The IC50 was 20 nM.

Question: For `O=C(Cc1ccc(Cl)cc1Cl)NC1CCOc2ncccc21` (single isomer, unassigned) [Example 31, 2-(2,4-Dichloro-phenyl)-N-(3,4-dihydro-2H-pyrano[2,3-b]pyridin-4-yl)-acetamide], which IC50 is on record?
Answer: The IC50 was 184 nM.

Question: How did the IC50 turn out when `O=C(NC1COc2ncccc21)C1CCc2cc(Cl)ccc21` (stereo not shown) [Example 145, 5-chloro-N-(2,3-dihydrofuro[2,3-b]pyridin-3-yl)-2,3-dihydro-1H-indene-1-carboxamide] was run?
Answer: Its IC50 is 2320 nM.

Question: Which IC50 does the source give for `O=C(Cc1ccc(Cl)cc1Cl)NC1CCOc2ncccc21` (single isomer, unassigned) [Example 30, 2-(2,4-Dichloro-phenyl)-N-(3,4-dihydro-2H-pyrano[2,3-b]pyridin-4-yl)-acetamide] here?
Answer: The IC50 was 177 nM.

Question: Which IC50 does the source give for `O=C(Cc1ccc(Cl)cc1Cl)NC1COc2cnccc21` (racemic) [Example 83, rac-2-(2,4-Dichloro-phenyl)-N-(2,3-dihydro-furo[2,3-c]pyridin-3-yl)-acetamide] here?
Answer: The IC50 was 15 nM.

Question: `O=C(NC1COc2ncccc21)C1(c2ccc(F)cc2Cl)CCCC1` (racemic) [Example 25, rac-1-(2-Chloro-4-fluoro-phenyl)-cyclopentanecarboxylic acid (2,3-dihydro-furo[2,3-b]pyridin-3-yl)-amide] was tested. Which IC50 did it give?
Answer: Its IC50 is 151 nM.

Question: `O=C(Cc1ccc(F)cc1Cl)NC1COc2ncccc21` (racemic) [Example 2, rac-2-(2-Chloro-4-fluoro-phenyl)-N-(2,3-dihydro-furo[2,3-b]pyridin-3-yl)-acetamide] was tested. Which IC50 did it give?
Answer: The IC50 was 103 nM.

Question: `O=C(Cc1cccc(C(F)(F)F)c1)NC1CCOc2ncccc21` (racemic) [Example 47, rac-N-(3,4-Dihydro-2H-pyrano[2,3-b]pyridin-4-yl)-2-(3-trifluoromethyl-phenyl)-acetamide] was tested. Which IC50 did it give?
Answer: Its IC50 is 1380 nM.

Question: `O=C(Cc1c(Cl)cc(Cl)cc1C(F)(F)F)NC1CCOc2ncccc21` (racemic) [Example 56, rac-2-(2,4-Dichloro-6-trifluoromethyl-phenyl)-N-(3,4-dihydro-2H-pyrano[2,3-b]pyridin-4-yl)-acetamide] was tested. Which IC50 did it give?
Answer: The IC50 was 489 nM.

Question: With `O=C(Cc1ccc(Cl)cc1Cl)NC1COc2ncccc21` (single isomer, unassigned) [Example 4, 2-(2,4-Dichloro-phenyl)-N-(2,3-dihydro-furo[2,3-b]pyridin-3-yl)-acetamide] as the compound, how does the IC50 read?
Answer: The IC50 was 40 nM.

Question: Which IC50 does the source give for `O=C(CCc1ccc(Cl)cc1Cl)NC1COc2ncccc21` (racemic) [Example 27, rac-3-(2,4-Dichloro-phenyl)-N-(2,3-dihydro-furo[2,3-b]pyridin-3-yl)-propionamide] here?
Answer: The IC50 was 3460 nM.

Question: With `O=C(Cc1ccc(Cl)cc1Cl)NC1COc2ncccc21` (single isomer, unassigned) [Example 3, 2-(2,4-Dichloro-phenyl)-N-(2,3-dihydro-furo[2,3-b]pyridin-3-yl)-acetamide] as the compound, how does the IC50 read?
Answer: Its IC50 is 42 nM.

Question: Which IC50 does the source give for `CC(C)(C(=O)NC1COc2ncccc21)c1ccc(Cl)cc1` (racemic) [Example 26, rac-2-(4-Chloro-phenyl)-N-(2,3-dihydro-furo[2,3-b]pyridin-3-yl)-isobutyramide] here?
Answer: Its IC50 is 2780 nM.

Question: For `O=C(Cc1ccc(Cl)c(Cl)c1)NC1CCOc2ncccc21` (racemic) [Example 55, rac-2-(3,4-Dichloro-phenyl)-N-(3,4-dihydro-2H-pyrano[2,3-b]pyridin-4-yl)-acetamide], which IC50 is on record?
Answer: The IC50 was 1260 nM.

Question: How did the IC50 turn out when `O=C(Cc1ccc(Cl)cc1Cl)NC1COc2ncccc21` (racemic) [Example 1, rac-2-(2,4-Dichloro-phenyl)-N-(2,3-dihydro-furo[2,3-b]pyridin-3-yl)-acetamide] was run?
Answer: Its IC50 is 33 nM.

Question: With `O=C(Cc1ccc(Cl)cc1C(F)(F)F)NC1CCOc2ncccc21` (racemic) [Example 53, rac-2-(4-Chloro-2-trifluoromethyl-phenyl)-N-(3,4-dihydro-2H-pyrano[2,3-b]pyridin-4-yl)-acetamide] as the compound, how does the IC50 read?
Answer: The IC50 was 1320 nM.

Question: For `O=C(Cc1ccc(F)cc1Cl)NC1CCOc2ncccc21` (racemic) [Example 38, rac-2-(2-Chloro-4-fluoro-phenyl)-N-(3,4-dihydro-2H-pyrano[2,3-b]pyridin-4-yl)-acetamide], which IC50 is on record?
Answer: Its IC50 is 496 nM.

Question: How did the IC50 turn out when `[2H]C([2H])([2H])C(C(=O)NC1COc2ncccc21)c1cccc(C(F)(F)F)c1Cl` (stereo not shown) [Example 126, 2-(2-Chloro-3-trifluoromethyl-phenyl)-2-trideuteromethyl-N-2,3-dihydro-furo[2,3-b]pyridin-3-yl-acetamide] was run?
Answer: Its IC50 is 45 nM.

Question: Which IC50 does the source give for `O=C(NC1COc2ncccc21)C1(c2ccc(Cl)cc2Cl)CC1` (racemic) [Example 24, rac-1-(2,4-Dichloro-phenyl)-cyclopropanecarboxylic acid (2,3-dihydro-furo[2,3-b]pyridin-3-yl)-amide] here?
Answer: Its IC50 is 133 nM.

Question: `O=C(Cc1ccc(Cl)cc1Cl)NC1CCOc2ncccc21` (racemic) [Example 9, rac-2-(2,4-Dichloro-phenyl)-N-(3,4-dihydro-2H-pyrano[2,3-b]pyridin-4-yl)-acetamide] was tested. Which IC50 did it give?
Answer: The IC50 was 144 nM.

Question: `Cc1cc2c(cn1)OCC2NC(=O)Cc1cccc(C(F)(F)F)c1Cl` (racemic) [Example 117, rac-2-(2-Chloro-3-trifluoromethyl-phenyl)-N-(5-methyl-2,3-dihydro-furo[2,3-c]pyridin-3-yl)-acetamide] was tested. Which IC50 did it give?
Answer: Its IC50 is 63 nM.

Question: Which IC50 does the source give for `O=C(Cc1cccc(C(F)(F)F)c1Cl)NC1COc2nnccc21` (racemic) [Example 109, rac-2-(2-Chloro-3-trifluoromethyl-phenyl)-N-(5,6-dihydro-furo[2,3-c]pyridazin-5-yl)-acetamide] here?
Answer: Its IC50 is 9 nM.
